Yeast mating assay B: variants of the scFv Ab-14

Binding partner: SARS-CoV-2 spike HR2 peptide, sequence PDVDLGDISGINAS.

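Phage display of a naive human antibody library on the peptide gave the parent. The variants were designed computationally from a first round of random CDR variants and then made and measured. Their group label is 14H_En_Gibbs (En: ensemble of fine-tuned language models; Gibbs: Gibbs sampling). The assay is AlphaSeq: two haploid yeast populations carry antibody and antigen on their surface. The frequency of each diploid, read from paired DNA barcodes, reflects how well the two displayed proteins bind. Scores were corrected for input abundance and mapped to Kd with protein pairs of known affinity run in the same pool. The assay was run in six technical replicates.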

Parent scFv Ab-14: VH joined to VL by the linker GGGGSGGGGSGGGGS. Changes lie in the heavy chain CDRs alone.
VH: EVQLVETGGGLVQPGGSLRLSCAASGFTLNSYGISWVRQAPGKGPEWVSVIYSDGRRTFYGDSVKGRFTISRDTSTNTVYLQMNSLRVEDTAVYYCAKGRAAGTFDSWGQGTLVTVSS
VL: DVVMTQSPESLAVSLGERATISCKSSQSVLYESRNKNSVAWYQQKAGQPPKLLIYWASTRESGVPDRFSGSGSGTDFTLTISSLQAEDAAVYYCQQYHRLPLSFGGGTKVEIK

Sequences are complete VH domains. Values are log10 of the apparent Kd in nM; lower means stronger binding. "n.d." means that the variant was in the library but no mating with the target was seen in that replicate; the authors take this as a sign of poor binding, and no number exists. A sequence measured in both rounds can read differently, since the two assays cover different ranges. Background: pairings of all heavy chain designs with three empty control strains gave a value in 1% of cases (median 2.08, 5th percentile 0.84). Values in that range, when seen in few replicates, are hard to tell from nonspecific mating. For each scFv, signals with the empty controls are counted beside the result, with their mean in brackets. Of ten entries with the parent sequence, four were seen in most replicates (averages 0.34 to 2.37), three in one and three in none, so single entries are noisy. The authors averaged sequences with at least three values out of six and counted those with two or fewer as poor binders.

{"VH": "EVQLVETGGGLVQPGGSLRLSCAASGFDINEYGVSWVRQAPGKGPEWVSVIYADGNRTMYQDQVKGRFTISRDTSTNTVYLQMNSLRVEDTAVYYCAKGINGGSFVLWGQGTLVTVSS", "replicates, log10 nM": "n.d. n.d. n.d. n.d. n.d. n.d.", "signal with controls": "1/18 (2.53)"}
{"VH": "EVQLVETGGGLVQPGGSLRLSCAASGFDINEYGISWVRQAPGKGPEWVSVVYADGMRQAYAENVKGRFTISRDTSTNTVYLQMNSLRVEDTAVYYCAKGELSGTFDAWGQGTLVTVSS", "replicates, log10 nM": "0.20 0.30 0.23 0.09 0.43 0.54", "signal with controls": "0/18"}
{"VH": "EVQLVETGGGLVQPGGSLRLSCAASGFNFDEYGISWVRQAPGKGPEWVSVIYADGMRRAYVDEVKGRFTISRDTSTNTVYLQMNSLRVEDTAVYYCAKGSHSDVFNMWGQGTLVTVSS", "replicates, log10 nM": "n.d. n.d. n.d. n.d. n.d. n.d.", "signal with controls": "0/18"}
{"VH": "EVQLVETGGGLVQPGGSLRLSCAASGFNLNEYGISWVRQAPGKGPEWVSVIYADGNRNAYADSVKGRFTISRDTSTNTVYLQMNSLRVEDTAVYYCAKGLHANFFAIWGQGTLVTVSS", "replicates, log10 nM": "n.d. n.d. n.d. n.d. n.d. n.d.", "signal with controls": "0/18"}
{"VH": "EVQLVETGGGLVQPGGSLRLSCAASGFDLNEYGISWVRQAPGKGPEWVSVIYADGKKTGFANTVKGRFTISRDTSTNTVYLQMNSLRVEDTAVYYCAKGESGGNFDDWGQGTLVTVSS", "replicates, log10 nM": "n.d. n.d. n.d. 1.90 n.d. n.d.", "signal with controls": "1/18 (1.72)"}
{"VH": "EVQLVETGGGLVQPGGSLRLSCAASGFNLDEEGISWVRQAPGKGPEWVSVIYADGIRTAYQDSVKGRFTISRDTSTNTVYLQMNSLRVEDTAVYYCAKGQNVATFNVWGQGTLVTVSS", "replicates, log10 nM": "n.d. n.d. n.d. n.d. n.d. n.d.", "signal with controls": "0/18"}
{"VH": "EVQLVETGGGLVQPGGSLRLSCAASGFDLEEMGISWVRQAPGKGPEWVSVIYADGIRTAVSNDVKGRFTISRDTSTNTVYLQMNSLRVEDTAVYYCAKGNVAGTGDFWGQGTLVTVSS", "replicates, log10 nM": "n.d. n.d. n.d. n.d. n.d. n.d.", "signal with controls": "0/18"}
{"VH": "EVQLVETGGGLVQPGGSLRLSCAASGQDLNEFGISWVRQAPGKGPEWVSVIYADGIRNQYADSFKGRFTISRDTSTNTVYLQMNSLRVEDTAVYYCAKGQNGFFFDIWGQGTLVTVSS", "replicates, log10 nM": "n.d. n.d. n.d. n.d. n.d. n.d.", "signal with controls": "0/18"}
{"VH": "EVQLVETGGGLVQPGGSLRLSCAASGRNLDEYGISWVRQAPGKGPEWVSVIYADGQRTSYRDNVKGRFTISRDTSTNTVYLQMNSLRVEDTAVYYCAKGANSGHLDMWGQGTLVTVSS", "replicates, log10 nM": "n.d. n.d. n.d. n.d. n.d. n.d.", "signal with controls": "0/18"}
{"VH": "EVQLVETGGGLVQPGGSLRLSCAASGKDIEEYGISWVRQAPGKGPEWVSVIYADGMRQAYADSVKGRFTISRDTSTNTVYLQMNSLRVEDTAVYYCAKGQVAGSGKFWGQGTLVTVSS", "replicates, log10 nM": "n.d. n.d. n.d. n.d. 1.90 n.d.", "signal with controls": "0/18"}
{"VH": "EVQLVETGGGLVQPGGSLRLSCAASGDDLAEYGVSWVRQAPGKGPEWVSVIYADGKRTKYSDHVKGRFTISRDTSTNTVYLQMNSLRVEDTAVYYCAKGENGGFFDLWGQGTLVTVSS", "replicates, log10 nM": "n.d. n.d. n.d. n.d. n.d. n.d.", "signal with controls": "0/18"}
{"VH": "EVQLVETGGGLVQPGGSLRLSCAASGFSIDEYGISWVRQAPGKGPEWVSVIYADGVRTAVDPSFKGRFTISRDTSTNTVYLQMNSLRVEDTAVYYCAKGQMAGFFDEWGQGTLVTVSS", "replicates, log10 nM": "n.d. n.d. n.d. n.d. n.d. n.d.", "signal with controls": "0/18"}
{"VH": "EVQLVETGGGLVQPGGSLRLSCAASGFQLDEVGISWVRQAPGKGPEWVSVIYADGMRTAYADSFKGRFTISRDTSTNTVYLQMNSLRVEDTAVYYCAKGVKSTIIGIWGQGTLVTVSS", "replicates, log10 nM": "n.d. n.d. n.d. n.d. n.d. n.d.", "signal with controls": "1/18 (1.72)"}
{"VH": "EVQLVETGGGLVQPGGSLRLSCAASGFNLDEYGISWVRQAPGKGPEWVSVIYADGMRNAYRDKVKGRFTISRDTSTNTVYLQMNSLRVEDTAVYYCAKGAHSFDLKTWGQGTLVTVSS", "replicates, log10 nM": "n.d. n.d. n.d. n.d. n.d. n.d.", "signal with controls": "0/18"}
{"VH": "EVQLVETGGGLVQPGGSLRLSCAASGFNLGEYGISWVRQAPGKGPEWVSVIYADGRRTFYKNSVKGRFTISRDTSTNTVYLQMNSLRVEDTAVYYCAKGEFIVMGVDWGQGTLVTVSS", "replicates, log10 nM": "n.d. n.d. n.d. n.d. n.d. n.d.", "signal with controls": "0/18"}
{"VH": "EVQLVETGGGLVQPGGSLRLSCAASGFDIEEQGISWVRQAPGKGPEWVSVIYADGIRTFYSEKVKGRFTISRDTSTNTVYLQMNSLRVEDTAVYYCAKGQNSNGFDMWGQGTLVTVSS", "replicates, log10 nM": "n.d. n.d. n.d. n.d. n.d. n.d.", "signal with controls": "1/18 (2.94)"}
{"VH": "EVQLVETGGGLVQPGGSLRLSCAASGFDLEEYGISWVRQAPGKGPEWVSVIYADGMRTQYINAVKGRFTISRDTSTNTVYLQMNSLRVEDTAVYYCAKGIIVDNLDLWGQGTLVTVSS", "replicates, log10 nM": "n.d. n.d. n.d. n.d. n.d. n.d.", "signal with controls": "0/18"}
{"VH": "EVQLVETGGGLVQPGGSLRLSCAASGFNLDEYGISWVRQAPGKGPEWVSVIYADGRRTVYTDSVKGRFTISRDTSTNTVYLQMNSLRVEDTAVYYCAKGRYGVYIAYWGQGTLVTVSS", "replicates, log10 nM": "n.d. n.d. n.d. n.d. n.d. n.d.", "signal with controls": "0/18"}
{"VH": "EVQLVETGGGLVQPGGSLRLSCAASGFKLDEYGISWVRQAPGKGPEWVSVIYADGQRKSYADSVKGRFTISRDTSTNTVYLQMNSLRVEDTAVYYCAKGQINVYYTAWGQGTLVTVSS", "replicates, log10 nM": "n.d. n.d. n.d. n.d. n.d. n.d.", "signal with controls": "0/18"}
{"VH": "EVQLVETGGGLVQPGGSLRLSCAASGMDLDEYGISWVRQAPGKGPEWVSVIYADGSRVFYVQDVKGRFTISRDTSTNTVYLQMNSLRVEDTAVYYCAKGTVDTVGDVWGQGTLVTVSS", "replicates, log10 nM": "n.d. n.d. n.d. n.d. n.d. n.d.", "signal with controls": "0/18"}

2 of these entries, quoted again:

VH,"replicates, log10 nM",signal with controls
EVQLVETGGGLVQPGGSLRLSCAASGFSIDEYGISWVRQAPGKGPEWVSVIYADGVRTAVDPSFKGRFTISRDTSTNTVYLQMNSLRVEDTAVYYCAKGQMAGFFDEWGQGTLVTVSS,n.d. n.d. n.d. n.d. n.d. n.d.,0/18
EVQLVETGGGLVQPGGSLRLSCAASGFDINEYGVSWVRQAPGKGPEWVSVIYADGNRTMYQDQVKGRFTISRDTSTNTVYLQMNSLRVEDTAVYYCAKGINGGSFVLWGQGTLVTVSS,n.d. n.d. n.d. n.d. n.d. n.d.,1/18 (2.53)

Reference: Li et al. 2023, doi:10.1038/s41467-023-39022-2. File: FLAb, binding data.